Laboratory results reported in ChEMBL document CHEMBL1135388, “Design and synthesis of pyrrolidine-5,5-trans-lactams (5-oxohexahydropyrrolo[3,2-b]pyrroles) as novel mechanism-based inhibitors of human cytomegalovirus protease. 2. Potency and chirality” (J Med Chem, 2002).

Experiments:
[1] = biological target: T1, Capsid scaffolding protein (Human cytomegalovirus (strain AD169) (HHV-5) (Human herpesvirus 5), UniProt P16753); assay: Concentration required for inhibition of human cytomegalo virus (HCMV) protease activity.; parameters: species or system Human herpesvirus 5 strain AD169
T1 sequence (P16753 whole entry): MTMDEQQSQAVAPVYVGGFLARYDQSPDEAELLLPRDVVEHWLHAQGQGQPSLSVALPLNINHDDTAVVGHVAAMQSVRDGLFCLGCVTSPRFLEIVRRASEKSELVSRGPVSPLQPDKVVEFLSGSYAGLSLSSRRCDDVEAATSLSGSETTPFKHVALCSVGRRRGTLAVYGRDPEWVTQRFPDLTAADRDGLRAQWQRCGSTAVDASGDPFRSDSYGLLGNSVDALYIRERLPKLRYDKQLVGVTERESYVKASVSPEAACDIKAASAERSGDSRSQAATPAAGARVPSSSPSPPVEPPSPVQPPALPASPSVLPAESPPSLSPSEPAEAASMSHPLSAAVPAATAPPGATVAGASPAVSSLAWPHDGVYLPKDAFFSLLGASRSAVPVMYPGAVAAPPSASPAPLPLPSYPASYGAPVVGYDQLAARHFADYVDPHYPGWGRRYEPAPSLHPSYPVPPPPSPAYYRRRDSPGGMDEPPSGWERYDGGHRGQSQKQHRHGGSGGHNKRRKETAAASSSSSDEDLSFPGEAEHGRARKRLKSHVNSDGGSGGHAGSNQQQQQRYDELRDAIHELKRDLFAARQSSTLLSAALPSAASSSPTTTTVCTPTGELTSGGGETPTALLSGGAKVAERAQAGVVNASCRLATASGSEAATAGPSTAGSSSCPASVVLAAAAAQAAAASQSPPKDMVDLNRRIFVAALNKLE
How it was run: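 Chromogenic microtiter assay using recombinant HCMV δAla protease and the 7-mer release-site peptide p-nitroanilide RESYVKA-pNA as substrate. Enzyme preincubated with inhibitor for 15 min before the reaction. Cleavage was followed by pNA release, and IC50 was derived from the resulting inhibition data.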

[2] = biological target: T1, Capsid scaffolding protein; assay: Inhibition of Human cytomegalo virus(HCMV) protease activity measured by HPLC assay; parameters: species or system Human herpesvirus 5 strain AD169

| Compound | IC50 [1] [µM] | IC50 [2] [µM] |
| --- | --- | --- |
| C[C@@H]1C(=O)N(C(=O)C2CC2)[C@H]2CCN(C(=O)[C@@H]3CCCN3S(=O)(=O)c3cccc4c(N(C)C)cccc34)[C@H]12 | 0.34 |  |
| CC(=O)N1C(=O)C(C)C2C1CCN2C(=O)OCc1ccccc1 (centres undefined) |  | 110 |
| CC(=O)N1C(=O)[C@@H](C)C2[C@@H]1CCN2C(=O)OCc1ccccc1 (some centres undefined) |  | 79 |
| CC(=O)N1C(=O)[C@H](C)C2[C@H]1CCN2C(=O)OCc1ccccc1 (some centres undefined) |  | > 1000 |
